BindingDB's records for doi:10.1021/jm00089a014 (Genentech, 1992)

The chains behind the UniProt entries cited, without tags or fusion partners. Residues count along the entry.
UniProt P08514, 32-887 limits assumed: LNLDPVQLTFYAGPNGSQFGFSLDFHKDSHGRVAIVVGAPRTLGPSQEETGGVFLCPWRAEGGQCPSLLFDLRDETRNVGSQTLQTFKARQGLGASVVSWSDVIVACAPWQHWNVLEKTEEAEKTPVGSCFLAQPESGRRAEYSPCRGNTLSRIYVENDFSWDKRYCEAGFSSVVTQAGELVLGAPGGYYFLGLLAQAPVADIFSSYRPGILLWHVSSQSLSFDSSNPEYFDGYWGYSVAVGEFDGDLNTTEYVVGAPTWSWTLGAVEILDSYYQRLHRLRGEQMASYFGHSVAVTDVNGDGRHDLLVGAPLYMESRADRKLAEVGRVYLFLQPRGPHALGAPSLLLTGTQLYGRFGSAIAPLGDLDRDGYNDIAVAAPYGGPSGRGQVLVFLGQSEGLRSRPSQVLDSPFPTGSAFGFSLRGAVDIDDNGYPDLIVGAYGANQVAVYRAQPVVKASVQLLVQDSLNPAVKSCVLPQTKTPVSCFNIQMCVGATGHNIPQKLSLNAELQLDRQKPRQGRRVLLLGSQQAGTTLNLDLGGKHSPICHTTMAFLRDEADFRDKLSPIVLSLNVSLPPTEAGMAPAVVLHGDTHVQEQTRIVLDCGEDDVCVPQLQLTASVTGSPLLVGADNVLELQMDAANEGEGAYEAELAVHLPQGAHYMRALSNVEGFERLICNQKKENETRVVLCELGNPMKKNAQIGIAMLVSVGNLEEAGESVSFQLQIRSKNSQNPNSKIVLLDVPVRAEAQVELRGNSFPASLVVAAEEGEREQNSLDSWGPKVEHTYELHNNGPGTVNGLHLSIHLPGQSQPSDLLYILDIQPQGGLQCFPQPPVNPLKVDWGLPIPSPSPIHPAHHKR
UniProt P08514, 891-1039 limits assumed: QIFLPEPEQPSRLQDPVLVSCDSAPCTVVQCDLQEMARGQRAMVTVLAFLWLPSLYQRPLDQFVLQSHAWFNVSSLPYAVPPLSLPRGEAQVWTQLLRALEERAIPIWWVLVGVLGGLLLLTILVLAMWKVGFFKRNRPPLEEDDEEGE
UniProt P05106, 27-788 limits assumed: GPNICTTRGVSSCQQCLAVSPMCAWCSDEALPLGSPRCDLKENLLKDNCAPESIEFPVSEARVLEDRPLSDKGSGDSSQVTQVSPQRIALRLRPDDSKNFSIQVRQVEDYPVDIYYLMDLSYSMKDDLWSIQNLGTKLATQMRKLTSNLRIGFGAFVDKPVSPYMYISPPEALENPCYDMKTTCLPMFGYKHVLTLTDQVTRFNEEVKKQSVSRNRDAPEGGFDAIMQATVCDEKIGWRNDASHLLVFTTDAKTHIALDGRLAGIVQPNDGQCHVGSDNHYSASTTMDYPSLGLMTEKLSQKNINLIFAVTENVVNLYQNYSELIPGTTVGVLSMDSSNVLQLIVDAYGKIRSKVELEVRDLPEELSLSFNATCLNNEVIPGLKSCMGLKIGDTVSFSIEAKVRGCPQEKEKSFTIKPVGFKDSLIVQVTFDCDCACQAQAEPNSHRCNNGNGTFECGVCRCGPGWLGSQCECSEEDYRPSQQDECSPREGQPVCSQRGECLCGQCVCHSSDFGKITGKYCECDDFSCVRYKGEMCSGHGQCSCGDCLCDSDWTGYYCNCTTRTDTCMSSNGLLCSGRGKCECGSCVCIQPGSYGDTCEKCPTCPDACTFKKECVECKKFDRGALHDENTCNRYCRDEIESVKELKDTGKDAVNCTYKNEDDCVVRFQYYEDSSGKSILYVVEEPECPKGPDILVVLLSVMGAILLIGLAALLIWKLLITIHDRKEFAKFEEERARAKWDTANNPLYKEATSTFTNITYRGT

Biological target: Integrin alpha-IIb/beta-3 (Homo sapiens, UniProt P08514+P05106)
Experiment: Inhibition of ADP-induced platelet aggregation in human platelet-rich plasma
Summary of the method: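 Human blood drawn into 3.8% sodium citrate (9:1); PRP from 180g spin, 12 min, 22 °C; count adjusted to 3 × 10^8/mL with PPP. PRP preincubated with test sample 5 min at 37 °C in aggregometer, then ADP 17.2 µM final. Inhibition from transmittance change at 5 min versus no-sample maximum; 12-14 concentrations over ~200-fold range; IC50 by four-parameter fit; n ≥ 3.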

SMILES	IC50
N=C(N)NCCC[C@H](NC(=O)CN)C(=O)NCC(=O)N[C@@H](CC(=O)O)C(=O)N[C@@H](CO)C(=O)O	160 µM
N=C(N)NCCC[C@H](NC(=O)CN)C(=O)NCC(=O)N[C@@H](CC(=O)O)C(=O)N[C@@H](Cc1ccccc1)C(=O)O	20 µM
